The list is not random: actives were taken first. Their share in the collection is about 2.3%.
Nrf2 inh = Nrf2 pathway inhibition. A549 ARE-Fluc reporter, luciferase luminescence, 18-24 h. Potency, µM (top dose mostly 46 µM), for inactives: top-dose activity change, negative = inhibition, most hits filed as inhibitors. 2.1% of 360,000 active; further: potency means the concentration at half of the fitted maximal effect; on the % scale 0 is the no-effect control and ±100 the full control effect; nearly all actives have a fitted effect of over 60% in size
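Nrf2 activity is the BugLite luminescence, read 15 min after reagent at room temperature, following CellTiter-Fluor cytotoxicity readout (30 min, 37C). Compound titrations were applied for 18-24 h to 5000 A549 ARE_Fluc cells/well in 5% FBS OPTI-MEM.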
Mito fusion act = blocks mitochondrial division or promotes mitochondrial fusion. S. cerevisiae fusion-defective mutant growth rescue, CellTiterGlo 48 h. Potency, µM (series often up to 46.1 µM), inactives show at the top dose growth rescue (activation), usual class: activators. 0.23% of 320,000 active. AID 485298; further: potency means the concentration at half of the fitted maximal effect; % of control where 0% means no effect; nearly all actives have a fitted effect of over 45% in size
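Read-out: ATP-based luminescence (CellTiterGlo, 10 min ambient) reporting growth of fusion-defective ts yeast after 48 hours at 37C on glycerol/ethanol YPEG medium in the presence of compound.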
miR-21 reporter = raises the signal of a miR-21 reporter | HeLa miR-21 FLuc reporter, luciferase, 48 h | Potency, µM (highest dose often 38.3 µM), inactives show at the highest dose reporter change, positive = more light | 340,000 tested, under 10 active | AID 2288; active = well fitted rising curve with a large enough effect; inconclusive = small, poorly fitted or top-dose-only effect; inactive = no such curve, though single readings can be large or run the other way;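 note: % of control where 0% means no effect; miR-21 action dims this reporter so a rising signal means less miR-21 action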
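Using DMEM plus 10% FBS, HeLa miR-21-FLuc cells are incubated with test compounds (final up to about 40uM) for 48 hours; firefly luciferase signal is then imaged following reagent-mediated lysis.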
A549 tox = counter-screen for Nrf2 inhibitors: cytotoxicity in A549 cells | A549 ARE-Fluc cells, CellTiter-Fluor viability, 18-24 h | Potency, µM (top dose mostly 46 µM), for the others: at the highest dose activity change, negative = cytotoxicity, hits mostly inhibitors | 0.16% of 390,000 active; further: potency means the concentration at half of the fitted maximal effect; on the % scale 0 is the no-effect control and ±100 the full control effect
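A549 ARE-Fluc cells in 5% FBS OPTI-MEM, 5000 cells/well, rested 2 h then exposed to compounds in concentration-response for 18-24 h at 37 °C. Viability by CellTiter-Fluor fluorescence (Ex 405/Em 525) after 30 min; luciferase luminescence (BugLite, 15 min, RT) read afterwards.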
Nrf2 ARE act = activators of Nrf2 (ARE) signaling | AREc32 ARE-luciferase reporter (MCF7-derived line), luminescence, 24 h | Potency, µM (top dose mostly 46.1 µM), for the others: top-dose activation, most hits filed as activators | 0.31% of 410,000 active; further: potency means the concentration at half of the fitted maximal effect; % of control where 0% means no effect; nearly all actives have a fitted effect of over 65% in size
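Each well held 1000 AREc32 cells, which were incubated with compound for 24 hr at 37 deg C after overnight attachment, and ARE reporter activity was quantified by firefly luciferase luminescence.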
An asterisk follows results filed as active; ? = inconclusive; / = no result given; ! = a repeat was not active; [ ] = remark or other dose. Unless noted, the call rests on the fitted dose curve; in most records, active means well fitted curve in the direction sought with a large enough effect; inconclusive means small, poorly fitted or top-dose-only effect, or another doubt; inactive means no such curve, though single readings can be large; an effect the other way counts as inactive or inconclusive.

Short forms: A = Nrf2 inh; B = Mito fusion act; C = miR-21 reporter; D = A549 tox; E = Nrf2 ARE act
CC(=O)c1cccc(NC(=O)C(C)n2c(=O)cc(C)c3c(C)nn(-c4ccccc4)c32)c1 (stereo not drawn)
  A: ?	B: /	C: -8%	D: -2%	E: -1%

CCn1c(=O)c2cc(C(=O)NCCOC)sc2c2ccccc21
  A: 21µM*	B: 2%	C: 1%	D: 4%	E: 0%

COc1cccc(NC(=O)CN(CCc2ccccc2)S(=O)(=O)c2ccc(Cl)cc2)c1
  A: -2%	B: /	C: 2%	D: 1%	E: 5%

CCN(CC)C(=O)N1CCN(C)CC1
  A: 13µM*	B: 0%	C: -3%	D: 16%	E: 0%

COc1ccc2cc(CN(CCO)C(=O)c3ccccc3F)c(=O)[nH]c2c1
  A: 6%	B: 1%	C: -9%	D: 0%	E: 0%

COc1ccc2cc(CN(CCO)C(=O)c3ccc(Br)cc3)c(=O)[nH]c2c1
  A: 21µM*	B: -5%	C: 3%	D: -13%	E: 1%

CC1CCc2cc(F)ccc2N1C(=O)CSc1nnc2c(n1)[nH]c1ccc(F)cc12 (stereo not drawn)
  A: 21µM*	B: 8%	C: -3%	D: ?	E: 0%

O=[N+]([O-])c1ccc2c(c1)S(=O)(=O)C=C2
  A: /	B: -112%	C: /	D: /	E: /

CCOc1ccc(CCNC(=O)CN2C(=O)COc3ccc(S(=O)(=O)N(CC)CC)cc32)cc1
  A: 23µM*	B: /	C: 4%	D: -4%	E: 2%

CCOc1ccccc1C1CC(=O)NC(C)=C1C(=O)OC1CCCCCC1 (stereo not drawn)
  A: ?	B: /	C: 17%	D: 5%	E: 3%

CCOC(=O)c1cc(-c2ccc(C)cc2)n(CCC(=O)Nc2ccc(OC)c(OC)c2)c1C
  A: 18µM*	B: /	C: 13%	D: -13%	E: -1%

Cc1ccc(-n2ncc3c(NCCc4ccccc4)ncnc32)cc1Cl
  A: /	B: /	C: -47%	D: -1%	E: 4%

Cc1nn(-c2ccccc2)c(OC(=O)C(C)C)c1Sc1ccc(Cl)cc1
  A: -14%[9.27 µM]	B: /	C: 2%	D: 4%	E: 1%

CS(=O)(=O)c1ccc(CNC(=O)C2(C(F)(F)F)C/C(=C\Cc3ccccc3)CCCO2)cc1 (stereo not drawn)
  A: 18µM*!	B: /	C: /	D: 9%	E: 4%

O=C(CNC(=O)C1CCCCC1)OCC(=O)c1ccc2c(c1)CCC2
  A: 12%	B: /	C: /	D: -4%	E: /

Full records, looked up by structure:
Listed for COc1ccc2cc(CN(CCO)C(=O)c3ccc(Br)cc3)c(=O)[nH]c2c1 : Nrf2 inh = 21µM*; Mito fusion act = -5%; miR-21 reporter = 3%; A549 tox = -13%; Nrf2 ARE act = 1%
Listed for Cc1nn(-c2ccccc2)c(OC(=O)C(C)C)c1Sc1ccc(Cl)cc1 : Nrf2 inh = -14%[9.27 µM]; Mito fusion act = /; miR-21 reporter = 2%; A549 tox = 4%; Nrf2 ARE act = 1%

The main list resumes, repeating the 2 entries before the break.
Short forms: A = Nrf2 inh; B = Mito fusion act; C = miR-21 reporter; D = A549 tox; E = Nrf2 ARE act
CS(=O)(=O)c1ccc(CNC(=O)C2(C(F)(F)F)C/C(=C\Cc3ccccc3)CCCO2)cc1 (stereo not drawn)
  A: 18µM*!	B: /	C: /	D: 9%	E: 4%

O=C(CNC(=O)C1CCCCC1)OCC(=O)c1ccc2c(c1)CCC2
  A: 12%	B: /	C: /	D: -4%	E: /

CC(=O)Oc1ccc2cc(-c3nc4c(s3)CCc3ccccc3-4)c(=O)oc2c1
  A: -7%	B: /	C: /	D: ?	E: /

COc1ccc(Br)cc1[C@H]1[C@H]2C=CC[C@@H](C)[C@@H]2C(=O)N1Cc1ccccc1
  A: 21µM*	B: ?	C: 12%	D: -17%	E: -1%

COc1ccc(-c2c([C@H]3[C@H]4C=CC[C@@H](C)[C@@H]4C(=O)N3Cc3ccccc3)ccc3ccccc23)cc1OC
  A: 18µM*	B: -36%	C: 30%	D: ?	E: 7%

COc1ccc(-c2c(C3C4C=CCC(C)C4C(=O)N3Cc3ccccc3)ccc3ccccc23)cc1 (stereo not drawn)
  A: 21µM*	B: /	C: /	D: -6%	E: /

COc1ccc(-c2ccc(C3C4C=CCC(C)C4C(=O)N3Cc3ccccc3)c(F)c2)cc1 (stereo not drawn)
  A: ?	B: /	C: /	D: -8%	E: /

COc1ccc(-c2ccccc2[C@H]2[C@@H]3C=CC[C@@H](C)[C@@H]3C(=O)N2Cc2ccccc2)cc1
  A: 18µM*	B: /	C: /	D: ?	E: 3%

COc1ccc(/C=C/c2ccccc2)cc1C1C2C=CCC(C)C2C(=O)N1Cc1ccccc1 (stereo not drawn)
  A: ?	B: /	C: /	D: 12%	E: /

COc1ccc(OC)c(NCc2cccn2-c2nnc(N3CCC(C)CC3)s2)c1
  A: ?	B: /	C: -11%	D: -5%	E: 1%

CCOC(=O)c1noc2nc(C)n(CC(=O)Nc3ccc(Br)cc3C)c(=O)c12
  A: /	B: /	C: 11%	D: -1%	E: 3%

Cc1nc2n(c(=O)c1CCN1CCC(c3noc4cc(F)ccc34)CC1)CCCC2O (stereo not drawn)
  A: /	B: -11%	C: /	D: /	E: /

Cc1cccc(C(=O)NCc2nnc(SCC(=O)Nc3ccccc3F)n2-c2ccccc2)c1
  A: 11%	B: /	C: 3%	D: 0%	E: 1%

CC(C)(C)OC(=O)Nc1ncnc2c1C(c1ccccc1)c1c(ccc3ccccc13)O2 (stereo not drawn)
  A: 4%	B: /	C: /	D: 0%	E: /

N=c1c2c(ccn1CCc1ccccc1)Oc1ccc3ccccc3c1C2c1ccccc1 (stereo not drawn)
  A: 3.7µM*	B: /	C: /	D: 3.7µM*	E: /

N=c1c2c(ncn1CCCO)Oc1ccc3ccccc3c1C2c1ccccc1 (stereo not drawn)
  A: ?	B: 0%	C: 7%	D: -6%	E: 10%

Nc1ncnc2c1C(c1ccccc1)c1c(ccc3ccccc13)O2 (stereo not drawn)
  A: 18µM*!	B: /	C: /	D: ?	E: -2%

(continued)
Order of values – Nrf2 inh	Mito fusion act	miR-21 reporter	A549 tox	Nrf2 ARE act
Cc1ccc(Cn2c(C)c(CNCc3ccc(OC(C)C)cc3)c(C(=O)O)c2C)cc1
    13%	/	-1%	-1%	1%
CCOC(=O)N1CCC(n2c(SCC(=O)Nc3ccccc3OC)nc3ccccc3c2=O)CC1
    15µM*	28%	-12%	/	0%
CCc1ccc(NC(=O)N(Cc2c[nH]c3ccccc23)C2CCCCCC2)cc1
    ?	/	-2%	-10%	5%
COc1ccc(NC(=O)c2ccc(C)o2)c([N+](=O)[O-])c1
    6%	-4%	-42%	4%	1%[9.22 µM]
COc1ccc(NC(=O)c2ccc([N+](=O)[O-])s2)c([N+](=O)[O-])c1
    3%	-1%	-11%	-19%	10µM*
CCc1nc(SCC(=O)N2CCCc3ccccc32)c2oc3ccccc3c2n1
    16µM*	16%	17%	?	-1%
c1cc(C2CCN(Cc3nc(-c4ccc5c(c4)OCO5)no3)CC2)ccn1
    16µM*	-1%	15%	-7%	3%
COCC1CCN(Cc2nc(-c3ccc4c(c3)OCO4)no2)C1 (stereo not drawn)
    ?	2%	-48%	0%	2%
CN1CCCC2(CCCN(Cc3nc(Cc4cccc(C(F)(F)F)c4)no3)C2)C1 (stereo not drawn)
    9%	-11%	-2%	1%	5%
FC(F)(F)c1cccc(Cc2noc(CN3CCC(c4ccncc4)CC3)n2)c1
    18µM*	-1%	25%	-2%	3%
Cc1ccc(-n2ccnc(NCCc3ccc(S(N)(=O)=O)cc3)c2=O)c(C)c1
    ?	/	22%	0%	1%
CC(C)CNC(=O)c1cccc(NC(=O)c2ccc(Cl)c([N+](=O)[O-])c2)c1
    26µM*	2%	0%	?	?
CCN(CC)c1cc(C)c2cc(NC(=O)c3ccc(Br)o3)ccc2n1
    12µM*	2%	-6%	?	0%
COc1ccccc1NC(=S)N(Cc1ccccc1)Cc1ccccn1
    ?	13%	-10%	1%	-1%
S=C(Nc1ccccc1Cl)N(Cc1ccccc1)Cc1ccccn1
    21µM*	18µM*	2%	-10%	0%
CCOc1cc(/C=C2\SC(=N)N(c3nccs3)C2=O)ccc1OCCN1CCOCC1
    18µM*	3%	17%	21µM*	0%[9.22 µM]

Screening results as filed in PubChem.
